## scFv variants of Ab-14 (heavy chain) against a SARS-CoV-2 spike peptide

The measurements come from Li et al. 2023 (doi:10.1038/s41467-023-39022-2) through the FLAb antibody collection.

The target is the same throughout: PDVDLGDISGINAS, from the HR2 region of SARS-CoV-2 spike.

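The parent was found by panning a naive human phage display library on the peptide. This is the validation round: designs drawn from the data on random variants, tested in the same kind of assay. Group labels follow the data file (Ctrl: baseline library sampled from a position-specific scoring matrix, with some repeated check sequences; Rand: our label for a block that the file lists under HC and that is probably the random mutants of the ten best first-round binders; En: ensemble of fine-tuned language models; GP: Gaussian process model; GPLM: also part of the Gaussian process libraries; HC: hill climbing; Gen: genetic algorithm; Gibbs: Gibbs sampling; a sequence that several methods proposed may carry one label only). AlphaSeq pools MATa yeast showing the antibodies with MATalpha yeast showing the peptide. Mating (16 h, 30 °C) was followed by selection of diploids and sequencing of their barcodes. Each replicate has its own calibration line, from reference interactions of the BCL2 family. The assay was run in six technical replicates.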

The variants keep the light chain, the linker and the frameworks of Ab-14 (scFv order VH, the linker GGGGSGGGGSGGGGS, VL).
VH: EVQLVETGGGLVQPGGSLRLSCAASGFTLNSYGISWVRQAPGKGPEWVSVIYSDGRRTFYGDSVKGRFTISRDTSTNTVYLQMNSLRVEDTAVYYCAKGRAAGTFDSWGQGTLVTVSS
VL: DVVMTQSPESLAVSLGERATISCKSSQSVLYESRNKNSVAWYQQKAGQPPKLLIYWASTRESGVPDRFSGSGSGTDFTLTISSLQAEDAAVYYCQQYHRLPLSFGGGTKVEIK

Each variant is given by its three heavy chain CDRs, as the data file delimits them; those of the parent are GFTLNSYGIS, VIYSDGRRTFYGDSVK, GRAAGTFDS. The read-out is the apparent dissociation constant on a log10 scale (nM): the lower, the stronger. The mean shown is taken over the replicates in which the pair was detected. Where no diploid with the target was found in any replicate, the entry reads "not detected": below detection, most likely a poor binder, though not proof of it. Empty control strains, which show no peptide, gave a signal in 1% of pairings with all heavy chain designs; the median was 2.08 and 95% of these signals were weaker than 0.84. No background was subtracted. Of ten entries with the parent sequence, four were seen in most replicates (averages 0.34 to 2.37), three in one and three in none, so single entries are noisy. In the paper, a design with two or fewer of six values counts as a poor binder. The range of this assay differs from that of the first round, and the authors advise against merging the two.

| mean, log10 nM | replicates with signal | CDR-H1 | CDR-H2 | CDR-H3 | group |
|---|---|---|---|---|---|
| 0.04 | 6 of 6 | GFDLNEYGIS | VIYADGKRSAYADSVK | GNVAGTFDQ | En_Gen |
| 0.70 | 6 of 6 | GFSLNSYGIS | VIYSDGRRTFYGDAVK | GKTAGTFDN | GP_Gibbs |
| 0.68 | 2 of 6 | GFTLQSYGIS | VIYSDGRRTFYHDSVK | GRAAGTFDQ | Ctrl |
| -0.30 | 6 of 6 | GFDLDEYGIS | VIYADGKRTAYADSVK | GTVAGTFDV | En_Gen |
| 2.10 | 6 of 6 | GFTLNEYGIS | VIYSDGLRTFYGDSVK | GRGAGTFDS | Ctrl |
| 0.15 | 6 of 6 | GFDLNEYGIS | VIYADGMRTAYSDSVK | GKNAGTFDV | En_Gen |
| not detected | 0 of 6 | GFDLQEYGVS | VIYADGERKAYADKVK | GTHGGTRDI | En_Gibbs |
| 0.22 | 6 of 6 | GFTLNSYGIS | VIYSDGQRTFYSDSVK | GQEAGTFDT | GP_Gibbs |
| 1.25 | 2 of 6 | GFDLNEYGIS | VIYADGMRTFYADSVK | GNIAGTFLS | En_HC |
| 3.55 | 1 of 6 | GDSLDEYGIS | VIYADGQRSFYADDVK | GEHDGLMFQ | En_Gibbs |
| -0.09 | 6 of 6 | GFDLNEYGIS | VIYADGQRTAYADSVK | GNAAGTFDS | En_HC |
| 0.87 | 6 of 6 | GFELNSYGIS | VIYSDGKRTFYADSVK | GRMAGTFDS | GP_Gen |
| 0.81 | 6 of 6 | GFELNSYGIS | VIYSDGRRTFYGDSVK | GRNAGTFDT | GPLM_Gibbs |
| 0.90 | 6 of 6 | GFDLNSYGIS | VIYSDGRRTFYHDSVK | GQLAGTFDS | GP_HC |
| 0.17 | 6 of 6 | GFSLNSYGIS | VIYSDGRRTAYCDSVK | GKAAGTFDS | GP_Gibbs |
| not detected | 0 of 6 | GFTLNSYGIS | VIYSDYRRTFYGDSVK | GRAAGTFDS | Ctrl |
| 1.20 | 2 of 6 | GTTLESYGIS | VIYSDGEREAYGDSVK | GRAAGTKDH | Ctrl |
| 1.12 | 3 of 6 | MFSLNEYGIS | VIYSDGRRTFYGDSVK | GRQAGTFDS | GP_Gibbs |
| not detected | 0 of 6 | GFTLDEYGIS | VIYADGMRTQYADQVK | GNLVATVMT | En_Gibbs |
| -0.11 | 6 of 6 | GFSLNDYGIS | VIYSDGRRTFYGDMVK | GRTAGTFDS | GPLM_Gen |
| 0.69 | 6 of 6 | GETLNSYGIS | VIYSDGRRTAYGDSVH | GEAAGTFDS | Ctrl |
| not detected | 0 of 6 | GQDINEYGIS | VIYADGVRTQYSDSVK | SGTDVALTV | En_Gibbs |
| 0.45 | 6 of 6 | GFELNSYGIS | VIYSDGRRTFYADQVK | GKTAGTFDS | GP_Gen |
| -0.82 | 6 of 6 | GFNLDEYGIS | VIYADGRRTFYADSVK | GSHAGTFDT | En_HC |
| -0.43 | 6 of 6 | GFDLNEYGIS | VIYADGMRTAYADDVK | GNVAGTFDF | En_Gen |
| 0.38 | 6 of 6 | GFDLNEYGIS | VIYADGRRTAYADSVK | GTNGGTFDV | En_HC |
| 0.38 | 6 of 6 | GFDLNEYGIS | VIYADGMRTQYADSVK | GNAAGTFDV | En_HC |
| -0.87 | 6 of 6 | GFDLEDYGIS | VIYADGQRTAYADSVK | GNVAGTFDV | En_Gen |
| 0.29 | 6 of 6 | GFTLDSYGIS | VIYSDGRRTAYGDSVK | GRAAGTFDS | Ctrl |
| not detected | 0 of 6 | GFTLNQYGIS | VILSDGRRTAYSDSVK | GRAAGFTDS | Rand |
| 0.02 | 6 of 6 | GFSLNSYGIS | VIYSDGRRTAYGDSVK | GRVAGTFDS | GPLM_Gen |
| 0.46 | 6 of 6 | GFELNSYGIS | VIYSDGRRTFYGDSVK | GATAGTFDS | GPLM_Gen |
| 0.51 | 1 of 6 | GFTLNSYGIS | VIYSDGRRTAYHDSVK | GRAAGTFDC | Ctrl |
| not detected | 0 of 6 | GFNLNSYGIS | VIYSDGRRTQYGDSVK | GEAAGTFDD | Ctrl |
| -0.82 | 6 of 6 | GFDLNEYGIS | VIYADGMRTAYADNVK | GTVAGTFDL | En_Gen |
| -0.70 | 6 of 6 | GFDLDEYGIS | VIYADGRRTAYIDSVK | GNQAGTFDV | En_Gen |
| -0.08 | 6 of 6 | GFDLDEYGIS | VIYADGMRTFYTDSVK | GEAAGTFDQ | En_HC |
| 2.58 | 4 of 6 | LFTLNEYGIS | VIYSDGRRTFYKDSVK | GRTAGTFDS | GP_HC |
| not detected | 0 of 6 | KFDLEAYGIS | VIYADGVRAAYVDKVK | GQTGAMFDM | En_Gibbs |
| -0.40 | 6 of 6 | GFNLNEYGIS | VIYADGRRSFYSDSVK | GEAAGTFDV | En_HC |
| 0.98 | 6 of 6 | GFNLNSYGIS | VIYSDGRRTFYADSVK | GRYAGTFDS | GPLM_Gen |
| -0.58 | 6 of 6 | GFDLNEYGIS | VIYADGVRKAYADSVK | GNNAGTFDV | En_Gen |
| -0.27 | 6 of 6 | GFNLDEYGIS | VIYADGRRTFYADSVK | GSVGGTFDT | En_HC |
| not detected | 0 of 6 | GFTLNSYGIS | VIYSDGRRTFYGDSVR | GRAPGTFDS | Ctrl |
| -0.53 | 6 of 6 | GFDINEYGIS | VIYADGRRTFYADSVK | GQTAGTFDD | En_HC |
| not detected | 0 of 6 | GFTLKSYGIS | VIYSDGRRTFYYDSVK | GRAAGTFES | Ctrl |
| not detected | 0 of 6 | GFNLNSYGIS | VIYSDGRRTIYGDSVK | GYAAFTDDS | Ctrl |
| -0.43 | 6 of 6 | GFDLDEYGIS | VIYADGRRTFYTDSVK | GETAGTFDV | En_HC |
| -0.44 | 6 of 6 | GFDLNEYGIS | VIYADGVRTQYADSVK | GNVAGTFDL | En_Gen |
| 0.41 | 3 of 6 | GFTLNSYGIS | VIYSDGRRTFYSDSVK | GLAGGTFDV | GP_HC |
| 0.16 | 6 of 6 | GFTLNSYGIS | VIYSDGRRTFYDDSVK | GLTAGTFDS | GP_HC |
| 0.78 | 6 of 6 | GFDLNSYGIS | VIYSDGRRTFYQDSVK | GDAAGTFDS | GP_Gen |
| not detected | 0 of 6 | GFTLNEYGIS | VIYSDGRRTFYADSVK | GRAAVTFDQ | GP_HC |
| 2.15 | 1 of 6 | GFSLDEMGIS | VIYADGQRTAYVDNVK | SVQGVVVGL | En_Gibbs |
| not detected | 0 of 6 | GFTLNEYGIS | VIYSDGERTQYGDSVK | GRAHGTFDS | Ctrl |
| 1.44 | 1 of 6 | GFTLNEYGYS | VIYADGRRTFYGDSVK | GSTAGTFDS | Ctrl |
| not detected | 0 of 6 | HFTLNFYGIS | VIYSDGRRTFYSDSVK | GRAAGSFDS | Rand |
| 0.02 | 6 of 6 | GFDLNSYGIS | VIYSDGRRTFYKDSVK | GRNAGTFDS | GP_Gen |
| 1.43 | 6 of 6 | GFDLNSYGIS | VIYSDGQRTFYVDSVK | GKAAGTFDS | GPLM_HC |

Excerpt, the first 5 entries:

CDR-H1	CDR-H2	CDR-H3	group	mean, log10 nM	replicates with signal
GFDLNEYGIS	VIYADGKRSAYADSVK	GNVAGTFDQ	En_Gen	0.04	6 of 6
GFSLNSYGIS	VIYSDGRRTFYGDAVK	GKTAGTFDN	GP_Gibbs	0.70	6 of 6
GFTLQSYGIS	VIYSDGRRTFYHDSVK	GRAAGTFDQ	Ctrl	0.68	2 of 6
GFDLDEYGIS	VIYADGKRTAYADSVK	GTVAGTFDV	En_Gen	-0.30	6 of 6
GFTLNEYGIS	VIYSDGLRTFYGDSVK	GRGAGTFDS	Ctrl	2.10	6 of 6